For one assay, the system named is Lacticaseibacillus casei. Kind of assay: Compound was evaluated for growth inhibition against Lactobacillus casei ATCC 7469. The class given is functional, organism-based.
The subject of a further assay is Enterococcus faecium. Kind of assay: Compound was evaluated for growth inhibition against Streptococcus faecium ATCC 8043. It counts as functional, organism-based.

One may read the IC50 as the concentration that inhibits the measured activity by half.

Values after ≈ are worked out from the molar mass of the structure shown.

In the assay on Lacticaseibacillus casei, `CC[C@@H](Cc1cnc2nc(N)nc(N)c2n1)c1ccc(C(=O)N[C@@H](CCC(=O)O)C(=O)O)cc1` yielded a 50% inhibitory concentration (IC50) of 0.23 ng/mL (≈ 0.492 nM).

For `CC[C@H](Cc1cnc2nc(N)nc(N)c2n1)c1ccc(C(=O)N[C@@H](CCC(=O)O)C(=O)O)cc1`, in the assay with Lacticaseibacillus casei, half-maximal inhibition (IC50) was put at 0.29 ng/mL (≈ 0.62 nM).

Regarding `CCC(Cc1cnc2nc(N)nc(N)c2n1)c1ccc(C(=O)NC(CCC(=O)O)C(=O)O)cc1` (racemic), the IC50 was found to be 0.26 ng/mL (≈ 0.556 nM) with Lacticaseibacillus casei and 2.7 ng/mL (≈ 5.78 nM) in the assay on Enterococcus faecium.

These data come from ChEMBL document CHEMBL1123545 (J Med Chem, 1986).
